Values quoted from earlier work in paper PMC2649372 (Biochemistry, 2008).

Test system: E129D mutant 5-HT3 receptor
Details: E129D vs WT; cited from earlier work

For `CN1C2CCCC1CC(NC(=O)c1nn(C)c3ccccc13)C2` (stereo not shown) [granisetron], the “increase in granisetron Kd” value is listed as roughly 100 fold.
